# Measurements reported in US10118927B2, “Substituted piperidin-4-amino-type compounds and uses thereof” (dated 2018).
# Biological target: human opioid receptor-like receptor (ORL-1) (Homo sapiens, UniProt P41146)
# Experiment: In vitro ORL-1 receptor binding assay ([3H]-nociceptin displacement)
# Details: read-out: Ki [Average ± Std Deviation] ORL-1; membranes from recombinant HEK-293 cells; 0.1 nM [3H]-nociceptin
row,SMILES,Ki [nM]
1,O=C(O)c1ccccc1N[C@H]1C[C@H]2CCC[C@@H](C1)N2[C@H]1C[C@@H]2CCC[C@@H](C2)C1,439
2,O=C(O)c1ccccc1N[C@H]1C[C@H]2CCC[C@@H](C1)N2C12CC3CC(CC(C3)C1)C2,> 20000
3,O=C(O)[C@@H]1CCCN1C(=O)CN(c1ccccc1)[C@H]1C[C@H]2CCC[C@@H](C1)N2[C@H]1C[C@@H]2CCC[C@@H](C2)C1,280
